Data published in patent US8263590B2, “Pyrimidine derivatives” (priority 2003, dated 2012).

Tested on: Jurkat T human leukemic cell line
Assay: In vitro T cell migration assay
Type: cell-based
Conditions: read-out: T Cell Migration IC50

IC50: 90 nM
SMILES: CCCS(=O)(=O)c1ccccc1Nc1nc(Nc2cc(N3CCC(N4CCCCC4)CC3)ccc2OC)ncc1Cl
